The assay in a line: Selectivity ratio is defined as IC50 human DHFR/IC50 tgDHFR.

In the case of `CN(Cc1ccccc1)c1cnc2nc(N)nc(N)c2c1`, the Selectivity ratio worked out at 20.

Consider `COc1ccc(CN(C)c2cnc3nc(N)nc(N)c3c2)c(OC)c1OC`, for which the Selectivity ratio was found to be 20.4.

The values above are taken from ChEMBL document CHEMBL1129539, “2,4-diamino-5-deaza-6-substituted pyrido[2,3-d]pyrimidine antifolates as potent and selective nonclassical inhibitors of dihydrofolate reductases” (J Med Chem, 1996).
